Experimental data taken from US12286452B2, “Amphiphilic aminoglycoside connexin hemichannel inhibitors” (Texas Tech University System, priority 2018, dated 2025).

Biological target: T1, human Cx26 HCs (Homo sapiens, UniProt P29033)
T1 construct: expressed in transfected cells; host or cells: E. coli LB2003 (carrying pREP4), transformed with pQE-Cx26, IPTG-induced
Assay: Cx26-dependent growth complementation assay in E. coli LB2003
Format: cell-based
Procedure: These derivatives were prepared by sequential benzylation and methylation followed by reduction of azido groups or hydrogenolysis of the Bn. […] Connexin HC inhibition was conducted using a bacteria-based assay of HC function^39. In this assay, Cx26 HCs are expressed in E. coli LB2003 cells, which lack three major K^+ uptake systems (Kdp, Kup and Trk), and as a result they cannot grow in low-[K^+] media^39-41. However, growth of this E. coli strain in low-[K^+] medium can be rescued by expression of K^+-permeable channels such as connexin HCs^39, 42-43. Under the conditions of the assay (LB2003 cells expressing HCs and grown in low-K^+ medium), inhibition of the HCs reduces or abolishes growth^39, 42-43. This is a simple assay where bacterial growth in multi-well plates can be followed by measuring the absorbance at 600 nm (OD600)^29.
LB2003 cells generously provided by Dr. E. P. Bakker (Osnabruk University, Osnabruk, Germany) were transformed with the plasmid pQE-Cx26 (human Cx26 into pQE60) and pREP4. […] LB2003 cells cannot grow in low-[K^+] media because of insufficient K^+ uptake for growth due to the knockout of three key K^+ transporters (Atrk, Akup, Akdp strain)^2-4. Details and validation of the growth complementation assay have been published recently^2. In brief, competent LB2003 containing the pREP4 plasmid were transformed with pQE-Cx26. These cells were grown overnight in Luria-Bertani medium (BD, Franklin Lakes, NJ, USA) supplemented with 100 mM KCl (to allow growth) and 0.4 mg/mL ampicillin, and then washed four times with NLM (see below), to remove residual K^+ from the Luria-Bertani medium. The washed cells were resuspended in complementation growth medium to an OD600 of 0.2. NLM contained 46 mM Na2HPO4, 23 mM NaH2PO4, 8 mM (NH4)2SO4, 0.4 mM MgSO4, 0.012 mM FeSO4, 1 mM sodium citrate, 44 mM glucose and 0.006 mM thiamine hydrochloride, pH 7.0. […] OD600 was measured after 18-h incubation in a plate reader. […] Statistically significant differences were calculated by the Student t-test for unpaired data. […]

Measured: IC50

NC[C@H]1O[C@H](O[C@H]2[C@H](O)[C@@H](O[C@@H]3O[C@H](COCc4ccccc4)[C@@H](OCc4ccccc4)[C@H](N)[C@H]3O)[C@H](N)C[C@@H]2N)[C@H](O)[C@@H](O)[C@@H]1O [Compound 7, 4″,6″-Di-O-benzylkanamycin]
7.6 ± 1.2 µM: 4″,6″-disubstituted AKs, Table 5, read-out: Cx26 IC50 | K46 members, the 20th table, read-out: IC50 (μM) against Cx26 | read-out: IC50, inhibition of Cx26 by kanamycin A and synthetic AGs, first Table 1

Read-outs that look alike come from different tables or passages of the source.
